The record followed here is patent publication US20020061840A1, “Tripeptide compounds useful as selective inhibitors of aminopeptidase A and corresponding pharmaceutical compositions” (priority 2000, published 2002).

pKi: −log10 of the molar value. Like-named read-outs stand apart in the source and are kept apart here.

The test addresses T1, Aminopeptidase N (Sus scrofa, UniProt P15145).
T1 construct: Aminopeptidase N purified from pig's kidney; purchased Böehringer Mannheim (Meylan, France); host or cells: pig's kidney
T1 sequence (P15145 1-963): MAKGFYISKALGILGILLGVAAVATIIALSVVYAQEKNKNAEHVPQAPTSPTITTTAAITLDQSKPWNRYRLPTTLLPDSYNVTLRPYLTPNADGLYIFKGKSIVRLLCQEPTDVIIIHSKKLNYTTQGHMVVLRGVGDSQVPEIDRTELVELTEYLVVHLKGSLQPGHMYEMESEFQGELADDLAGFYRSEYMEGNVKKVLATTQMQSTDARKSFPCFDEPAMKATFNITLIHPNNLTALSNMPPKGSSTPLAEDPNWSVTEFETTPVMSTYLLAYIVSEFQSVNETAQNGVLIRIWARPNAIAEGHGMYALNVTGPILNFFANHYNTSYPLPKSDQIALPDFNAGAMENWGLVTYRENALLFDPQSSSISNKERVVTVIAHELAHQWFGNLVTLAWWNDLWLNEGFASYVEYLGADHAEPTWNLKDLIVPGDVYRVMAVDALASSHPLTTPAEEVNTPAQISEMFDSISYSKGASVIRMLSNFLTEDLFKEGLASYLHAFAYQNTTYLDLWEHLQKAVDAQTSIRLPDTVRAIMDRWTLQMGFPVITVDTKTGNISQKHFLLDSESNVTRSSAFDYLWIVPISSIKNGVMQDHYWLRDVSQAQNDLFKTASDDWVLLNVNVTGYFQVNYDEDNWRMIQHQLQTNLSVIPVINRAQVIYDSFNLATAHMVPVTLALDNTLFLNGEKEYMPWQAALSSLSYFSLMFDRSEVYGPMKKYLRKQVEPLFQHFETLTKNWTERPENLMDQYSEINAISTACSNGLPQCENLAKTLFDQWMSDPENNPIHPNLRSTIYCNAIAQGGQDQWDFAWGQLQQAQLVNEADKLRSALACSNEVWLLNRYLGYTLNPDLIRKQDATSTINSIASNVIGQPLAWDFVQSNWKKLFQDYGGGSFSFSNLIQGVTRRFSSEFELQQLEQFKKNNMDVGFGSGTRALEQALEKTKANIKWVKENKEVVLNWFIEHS
Kind of test: In vitro inhibiting power on aminopeptidase N (Ala-Na substrate). It counts as biochemical, pig. The procedure:
b)) In vitro study of the inhibiting power of the synthesised compounds on aminopeptidase N.
1°) Source of the Enzyme.
Aminopeptidase N purified from pig's kidney is marketed by Böehringer Mannheim (Meylan, France).
The APN is incubated for 10 min at 37° C. in the absence or in the presence of increasing concentrations of inhibitors in a total volume of 100 μl in Tris HCl buffer (50 mM, pH =7.4. 200 μM of Ala-Na are added and the whole thing is incubated for 30 min at 37° C. The reaction is stopped by the addition of 10 μl of CH3COO—Na 1M (pH=4.2). The absorption is measured at 400 nm and compared with that of a standard range of 2-naphthyiamine.

As a reminder, the pKi is the negative decadic logarithm of the Ki, by convention in mol/L. Low readings indicate a large Ki, high ones a small Ki. For `CCC(C)C(NC(=O)C(S)C(N)CCS(=O)(=O)O)C(=O)NC(CS(=O)(=O)O)C(=O)O` (single isomer, unassigned) [Example 5A], the negative logarithm of the Ki (pKi) was less than 5.30.
What is called Ki is a dissociation constant, usually derived from enzyme kinetics or from competition with a known ligand. In the case of `CCC(C)C(NC(=O)C(S)C(N)CCS(=O)(=O)O)C(=O)NC(CS(=O)(=O)O)C(=O)O` (single isomer, unassigned) [Example 5B], for the setting “read-out: Ki (M) APN, APN purified from pig's kidney, 200 μM Ala-Na, 37° C., Tris HCl pH 7.4”, the inhibition constant (Ki) is greater than 5e-06 M.
